# Measured affinities in a library of Ab-14 light chain variants

Antigen: PDVDLGDISGINAS, a 14-residue peptide of the SARS-CoV-2 spike HR2 region.

The variants keep the heavy chain, the linker and the frameworks of Ab-14 (scFv order VH, a 15-residue (Gly4Ser)3 linker, VL).
VH: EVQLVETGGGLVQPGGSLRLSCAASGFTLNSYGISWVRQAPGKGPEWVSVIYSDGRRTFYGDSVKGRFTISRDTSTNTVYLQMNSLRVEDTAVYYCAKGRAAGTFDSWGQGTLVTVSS
VL: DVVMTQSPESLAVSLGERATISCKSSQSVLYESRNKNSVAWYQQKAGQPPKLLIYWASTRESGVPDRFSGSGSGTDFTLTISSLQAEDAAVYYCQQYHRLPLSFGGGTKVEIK

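The parent was found by panning a naive human phage display library on the peptide. This is the validation round: designs drawn from the data on random variants, tested in the same kind of assay. Their group label is 14L_En_Gen (En: ensemble of fine-tuned language models; Gen: genetic algorithm). In AlphaSeq, yeast of one mating type display the scFv and yeast of the other type display the target. Mating (16 h, 30 °C) was followed by selection of diploids and sequencing of their barcodes. A regression on co-assayed BCL2-family reference pairs converts the normalised counts of each replicate to an apparent Kd. There are six technical replicates.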

The parent's light chain CDRs are KSSQSVLYESRNKNSVA, WASTRES, QQYHRLPLS; each variant's own CDRs replace them letter for letter. Values are log10 of the apparent Kd in nM; lower means stronger binding. "n.d." means that the variant was in the library but no mating with the target was seen in that replicate; the authors take this as a sign of poor binding, and no number exists.

| # | CDR-L1 | CDR-L2 | CDR-L3 | log10 Kd, replicates | signal with controls |
|---|---|---|---|---|---|
| 1 | IVSQLMLWGMHHKNSIA | EAETRIN | QQYDRLPLF | 2.22 n.d. n.d. n.d. 2.47 2.34 | 0 of 18 |
| 2 | MISQLYNMGQFAINSVA | QASIRNE | QQYDRLPLV | 0.96 1.58 1.40 0.83 1.51 1.41 | 1 of 18 (2.33) |
| 3 | HLGLATMLEAQVRNSVA | NNSTRED | QQYDRLPLS | 2.17 2.90 2.81 2.66 3.04 2.62 | 2 of 18 (2.61) |
| 4 | TIGAQLMYGMRNRSNVA | EVSERLN | QQYDRLPLF | 1.78 1.83 2.57 2.04 2.29 n.d. | 2 of 18 (2.99) |
| 5 | MMSQVTGQGTRHRNNVA | QTETREP | QQYDRLPLV | 0.85 1.52 0.37 0.65 1.34 0.61 | 0 of 18 |
| 6 | HMSMLTMMGMRHRNSVA | QMTMREN | QQYDRLPLA | 2.28 3.30 1.73 1.30 1.43 2.25 | 1 of 18 (1.73) |
| 7 | IVSQLMMWGLHAKNSIA | EAVTRYN | QQYDRLPLF | n.d. n.d. n.d. n.d. 1.18 n.d. | 0 of 18 |
| 8 | MLSEMMHMLGAKKNSIA | DLVERAN | QQYHRLPLE | 0.76 0.92 0.77 1.24 1.24 0.72 | 0 of 18 |
| 9 | MVSQLMLWGLHAKNSIA | EAQTRLN | QQYDRLPLD | n.d. n.d. n.d. n.d. n.d. n.d. | 0 of 18 |
| 10 | MVSQLMLWGLHAKNSIA | EAETRLN | QQYDRLPLE | 0.53 1.33 1.68 0.78 0.41 1.01 | 0 of 18 |
| 11 | KLSSVIGTEKVHGNNVA | EMATRER | QQYNRLPLS | 0.25 -0.13 -0.12 0.00 -0.31 0.00 | 1 of 18 (2.71) |
| 12 | QIGGLLNFESSKINNVA | QMETRVN | QQYDRLPLS | 0.69 0.62 0.90 0.51 0.75 0.60 | 3 of 18 (2.34) |
| 13 | MMSQVTGSGTRHRNNVA | QTSMRET | QQYDRLPLI | 1.26 1.03 1.08 1.06 1.14 1.08 | 1 of 18 (3.26) |
| 14 | KLGMTLNELMIKKNNVA | DLVEREN | QQYHRLPLS | 0.91 0.49 0.25 0.37 0.47 0.55 | 0 of 18 |
| 15 | MISQIYNMGTFAINSVA | QASIRNA | QQYDRLPLI | 1.48 1.88 0.65 1.37 1.15 1.87 | 0 of 18 |
| 16 | KVSSFMRGLMMRTDSIA | DNETRES | QQYDRLPLS | 1.51 1.68 1.85 1.14 1.26 1.42 | 3 of 18 (2.56) |
| 17 | HITYGMMVHGRHGSSIA | QAEERAK | QQYDRLPLA | 1.89 1.09 0.95 1.41 0.79 1.54 | 0 of 18 |
| 18 | MISQISSMGQFAKNSVA | QASTRNA | QQYDHLPLI | 0.40 0.63 0.72 0.46 0.49 0.60 | 2 of 18 (2.08) |
| 19 | MISNVMNTLTREGNNVA | DLQNREK | QQYFRLPLS | n.d. n.d. n.d. n.d. n.d. n.d. | 0 of 18 |
| 20 | MISQMYNMGQFAINSVA | QASERNN | QQYDRLPLM | 1.34 1.73 1.37 1.54 1.13 1.37 | 1 of 18 (2.61) |
| 21 | KVSQFMRGLTQRKDSIA | DNNTRGS | QQYDRLPLS | 2.00 2.09 1.24 1.20 1.33 1.37 | 1 of 18 (2.44) |
| 22 | TIMQMTSSFSQNINNVA | EVSTREK | QQYDRLPLS | 1.22 1.42 1.29 1.39 1.00 1.16 | 2 of 18 (3.54) |
| 23 | KLSQITGHLSVSKNNVA | EMVTREN | QQYDRLPLS | 1.67 1.78 1.81 1.21 1.48 1.11 | 0 of 18 |
| 24 | KLSMTTEMEHTNRNSVA | ELVTRMK | QQYNRLPLS | 1.03 1.08 2.18 0.94 1.61 1.86 | 1 of 18 (2.09) |
| 25 | KISQMIRVGSTHGNSIA | EEQTRAK | QQYHRLPLS | 1.27 1.54 0.81 0.92 0.87 0.68 | 0 of 18 |
| 26 | MMSQVTGQGTRHRNNVA | QTETREP | QQYDRLPLI | 3.23 1.79 1.68 2.05 1.45 1.93 | 2 of 18 (1.96) |
| 27 | MISQLYNMGTFAINSVA | QASVRNE | QQYDRLPLQ | 1.88 1.39 1.38 1.47 1.86 2.33 | 0 of 18 |
| 28 | HITYGMMVHGRHGSSIA | QAETRAK | QQYDRLPLA | n.d. 1.90 1.68 2.02 1.53 1.68 | 0 of 18 |
| 29 | SISGFMKSLAAHSNSVA | DMTNRED | QQYDRLPLS | 0.36 0.04 -0.23 -0.39 -0.11 -0.05 | 0 of 18 |
| 30 | IVSQLMLWGMHVKNSIA | EAQTRIN | QQYDRLPLF | n.d. 1.81 n.d. n.d. n.d. n.d. | 0 of 18 |
| 31 | MISSVMGINNMYQSSVA | QAETRVE | QQYDRLPLA | 0.88 0.72 0.93 0.86 0.67 1.09 | 0 of 18 |
| 32 | NLSGMTAHESVKEKNIA | ERSTREQ | QQYNRLPLS | 1.09 0.85 1.07 1.19 1.17 2.03 | 0 of 18 |
| 33 | TLYGLSMSMSKNKNNVA | EMTTREK | QQYDRLPLI | 0.72 0.95 0.85 1.12 0.72 0.77 | 0 of 18 |
| 34 | HMSALTLQGMRHRNSVA | QMTTREN | QQYDRLPLS | 2.64 1.98 2.70 2.35 n.d. 3.41 | 1 of 18 (2.71) |
| 35 | MISQILNMGQFAINSVA | QAETRCN | QQYDRLPLE | 2.06 2.12 1.80 n.d. 2.30 2.33 | 0 of 18 |
| 36 | KVSEFMRGLMKKTDSIA | DNETRGA | QQYDRLPLS | 2.04 1.69 2.10 2.67 2.13 1.96 | 1 of 18 (2.97) |
| 37 | KLSMVQGHMMVSKNNVA | EMETRVN | QQYDRLPLS | 0.31 0.18 0.13 0.16 0.00 0.81 | 0 of 18 |
| 38 | TISGVMTQMSHSKNNVA | EVSTRLD | QQYFRLPLE | 0.33 0.14 0.40 -0.06 0.04 0.02 | 1 of 18 (3.46) |
| 39 | MISQLYNMGQFAINSVA | QASTRHE | QQYDRLPLM | n.d. 1.30 0.75 1.21 0.32 1.53 | 0 of 18 |

The 4 strongest on average among those seen in every replicate, once more:

| CDR-L1 | CDR-L2 | CDR-L3 | log10 Kd, replicates | signal with controls |
|---|---|---|---|---|
| SISGFMKSLAAHSNSVA | DMTNRED | QQYDRLPLS | 0.36 0.04 -0.23 -0.39 -0.11 -0.05 | 0 of 18 |
| KLSSVIGTEKVHGNNVA | EMATRER | QQYNRLPLS | 0.25 -0.13 -0.12 0.00 -0.31 0.00 | 1 of 18 (2.71) |
| TISGVMTQMSHSKNNVA | EVSTRLD | QQYFRLPLE | 0.33 0.14 0.40 -0.06 0.04 0.02 | 1 of 18 (3.46) |
| KLSMVQGHMMVSKNNVA | EMETRVN | QQYDRLPLS | 0.31 0.18 0.13 0.16 0.00 0.81 | 0 of 18 |

A sequence measured in both rounds can read differently, since the two assays cover different ranges. Of ten entries with the parent sequence, four were seen in most replicates (averages 0.34 to 2.37), three in one and three in none, so single entries are noisy. The authors averaged sequences with at least three values out of six and counted those with two or fewer as poor binders. Empty control strains, which show no peptide, gave a signal in 4% of pairings with all light chain designs; the median was 2.64 and 95% of these signals were weaker than 1.59. No background was subtracted. Also given: how often the same scFv was detected with the empty control strains, with their mean in brackets.

The measurements come from Li et al. 2023 (doi:10.1038/s41467-023-39022-2) through the FLAb antibody collection.